Measurements as given in patent US20200353088A1, “PEPTIDE CONJUGATE CGRP RECEPTOR ANTAGONISTS AND METHODS OF PREPARATION AND USES THEREOF” (Auckland UniServices Limited, priority 2017, published 2020).

System: C57BL/6 mice
Test: Antagonism in vivo of capsaicin-induced ear vasodilation (laser Doppler)
Conditions: 960 nmol/kg subcutaneously, 15 minutes
Method: 4. Antagonism In Vivo of Capsaicin-Induced Ear Vasodilation in C57BL/6 Mice
On the day of experiment, 10 mM stock solutions of antagonists A and A4 in dimethylsulfoxide were diluted in saline vehicle containing a final amount of 0.1% bovine serum albumin and 3.2% dimethylsulfoxide. Capsaicin solutions were constituted at 3.03 mg/ml by dissolving capsaicin powder (at ≥95% purity) in absolute ethanol. Animal studies were conducted within a room maintained at 20 to 21 degrees Celsius.
The antagonists at a dose of 960 nmol/kg (10 ml/kg in saline containing 0.1% BSA and 3.2% dimethylsulfoxide), or saline vehicle (containing 0.1% BSA and 3.2% dimethylsulfoxide) were each administered subcutaneously to C57BL/6 mice at 10 minutes prior to anesthesia. The absolute injection volumes for A and A4 were adjusted such that the final dose administered was 960 nmol/kg. Mice were then anesthetized with a cocktail that consisted of ketamine and xylazine at 100 mg/kg and 10 mg/kg respectively (10 ml/kg), administered subcutaneously. […]
Mean flux values for both ears (control and capsaicin) at each timepoint (per minute) were analysed using MoorLDI Review 6.1 and Graphpad Prism 7 software. […] Area under the curve (AUC) of the normalised profile baseline was measured for each animal, grouped and compared between the different treatment arms. […]

CC(C)C[C@H](NC(=O)CNC(=O)[C@H](C)NC(=O)[C@H](CC(C)C)NC(=O)[C@H](CCCNC(=N)N)NC(=O)[C@H](Cc1c[nH]cn1)NC(=O)[C@@H](NC(=O)[C@@H](N)C(C)C)[C@@H](C)O)C(=O)N[C@@H](CC(C)C)C(=O)N[C@@H](CO)C(=O)N[C@@H](CCCNC(=N)N)C(=O)N[C@@H](CO)C(=O)NCC(=O)NCC(=O)N[C@H](C(=O)N[C@H](C(=O)N[C@@H](CCCCN)C(=O)N[C@@H](CC(N)=O)C(=O)N[C@@H](CC(N)=O)C(=O)N[C@@H](Cc1ccccc1)C(=O)N[C@H](C(=O)N1CCC[C@H]1C(=O)N[C@H](C(=O)N[C@@H](CC(N)=O)C(=O)N[C@H](C(=O)NCC(=O)N[C@@H](CO)C(=O)N[C@@H](CCCCN)C(=O)N[C@@H](C)C(=O)N[C@@H](Cc1ccccc1)C(N)=O)C(C)C)[C@@H](C)O)C(C)C)C(C)C)C(C)C [A, CGRP8-37]
Attenuation of capsaicin-evoked vasodilatory response compared to control, analysed by AUC (FIGS. 5 and 6): significant
